According to patent US20250228913A1, “STABILIZED OMEGA-3 OPHTHALMIC COMPOSITIONS” (Allergan, Inc., priority 2014, published 2025):

Assay: Chemical stability of omega-3 oils in emulsions (FIG. 1, FIG. 2)
Settings: emulsions of Table 10

## CC(=O)Oc1c(C)c(C)c2c(c1C)CCC(C)(CCC[C@H](C)CCC[C@H](C)CCCC(C)C)O2 (stereo partly shown) [Vitamin E acetate]
  Effect of excipient on chemical stability of omega-3 oils in emulsion: worsened the chemical stability
